Columns and labels:
rhASGPR [1] = molecular target: T1, rhASGPR (Homo sapiens, UniProt P07306); experiment: SPR inhibition of ASF binding to rhASGPR by monosaccharides
T1 construct: The extracellular domains of receptor proteins were acquired from R&D Systems (Wiesbaden, Germany); purchased R&D Systems (Wiesbaden, Germany)
T1 sequence (P07306 62-291 limits assumed): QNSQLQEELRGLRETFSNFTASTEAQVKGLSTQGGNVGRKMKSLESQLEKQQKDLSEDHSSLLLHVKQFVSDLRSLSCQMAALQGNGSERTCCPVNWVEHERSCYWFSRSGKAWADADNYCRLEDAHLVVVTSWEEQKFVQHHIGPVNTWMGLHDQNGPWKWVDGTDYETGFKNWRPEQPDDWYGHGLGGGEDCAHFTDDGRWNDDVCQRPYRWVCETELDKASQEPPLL
Procedure: (§1) SPR technology (Biacore T200, GE Healthcare Biosciences, Uppsala, Sweden) was applied to evaluate mechanisms of realtime biomolecular interactions between VWF, receptor-blocking agents and clearance receptor candidates. The interaction experiments were performed at a flow cell temperature of +25° C. by applying running buffer containing 10 mM HEPES, 150 mM NaCl, 5 mM CaCl2 and 0.05% Tween-20 at pH 7.4, which was also used as sample dilution buffer. Reagents and buffer stock solutions were purchased from GE Healthcare Biosciences (Uppsala, Sweden). The extracellular domains of receptor proteins were acquired from R&D Systems (Wiesbaden, Germany). […]
Kinetic data were analyzed using Biacore T200 Evaluation Software Version 1.0 (GE Healthcare Biosciences, Uppsala, Sweden). An interaction of the analyte with the ligand was detected by an increase in accumulating mass and specific binding was identified by subtracting the binding response recorded from the control surface, followed by subtracting an average of the buffer blank injections. A report point was positioned 20 seconds after the end of sample injection and was evaluated as representative for a stable protein-ligand interaction, which was of interest. […] Furthermore, the response was calculated relative to the baseline in each case. […]

rhASGPR [2] = molecular target: T1, rhASGPR; experiment: SPR binding to immobilized clearance receptor rhASGPR; conditions: 25 °C, 5 mM CaCl2, pH 7.4, FIGS. 9 and 10
Procedure: as §1
Kinetic data were analyzed using Biacore T200 Evaluation Software Version 1.0 (GE Healthcare Biosciences, Uppsala, Sweden). An interaction of the analyte with the ligand was detected by an increase in accumulating mass and specific binding was identified by subtracting the binding response recorded from the control surface, followed by subtracting an average of the buffer blank injections. A report point was positioned 20 seconds after the end of sample injection and was evaluated as representative for a stable protein-ligand interaction, which was of interest. […] Furthermore, the response was calculated relative to the baseline in each case.

## asialofetuin: bovine ASF (fetuin after the removal of terminal sialic acid residues), ligand blocking galactose receptors such as ASGPR
rhASGPR [1]
  binding of ASF to rhASGPR in the absence of Ca2+: inhibited
rhASGPR [2]
  SPR binding to rhASGPR: bind efficiently

— patent US9707269B2, “Sugar compositions for treating hemophilia A and/or von Willebrand disease” (CSL Behring GmbH, priority 2012, dated 2017)
